Measured values from PubChem BioAssay AID1249 (Columbia University Molecular Screening Center, 2008).
The entries are a selection whose mix differs from that of the whole data set. The source made the active and inactive calls. No rule for the calls is given here.

Test: modifiers of cytoskeleton assembly, confirmation, imaging, high-content imaging, retest and dose response (AID 1249);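 also: compound exposure lasted 24 h before fixation; plate controls were untreated cells for no effect and reference compound treated cells for full effect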
Conditions: cell-based imaging, cytoskeleton assembly phenotype, at 2 µM, hits give high values

## O=P(Nc1nccs1)(c1ccccc1)c1ccccc1
  inhibition: inactive: 3.5%
